Data taken from patent US20130071374A1, “RNA Interferases and Methods of Use Thereof” (UNIVERSITY OF MEDICINE AND DENTISTRY OF NEW JERSEY, published 2013).

B1: Gal4 DNA binding domain fusion of MazFΔ(1-14) (pGBD-MazFΔ(1-14)) (other)
chain: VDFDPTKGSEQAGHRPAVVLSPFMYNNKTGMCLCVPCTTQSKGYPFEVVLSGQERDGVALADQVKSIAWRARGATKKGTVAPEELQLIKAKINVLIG
B2: Gal4 DNA binding domain fusion of MazFΔ(1-25) (pGBD-MazFΔ(1-25)) (other)
chain: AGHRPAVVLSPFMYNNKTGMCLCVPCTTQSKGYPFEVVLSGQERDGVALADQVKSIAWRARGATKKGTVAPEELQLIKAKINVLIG
B3: Gal4 DNA binding domain fusion of MazFΔ(72-111) (pGBD-MazFΔ(72-111)) (other)
chain: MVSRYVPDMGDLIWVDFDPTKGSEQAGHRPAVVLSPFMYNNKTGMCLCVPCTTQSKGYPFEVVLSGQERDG
B4: Gal4 DNA binding domain fusion of MazFΔ(97-111) (pGBD-MazFΔ(97-111)) (other)
chain: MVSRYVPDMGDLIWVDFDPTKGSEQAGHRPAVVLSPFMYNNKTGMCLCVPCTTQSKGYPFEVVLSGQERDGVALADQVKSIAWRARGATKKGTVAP
B5:  (other)
chain: MIHSSVKRWGNSPAVRIPATLMQALNLNIDDEVKIDLVDGKLIIEPVRKEPVFTLAELVNDITPENL

Molecular target: T1, Gal4 transcriptional activation domain fusion of full-length MazE (pGAD-MazE) (Escherichia coli)
T1 chain: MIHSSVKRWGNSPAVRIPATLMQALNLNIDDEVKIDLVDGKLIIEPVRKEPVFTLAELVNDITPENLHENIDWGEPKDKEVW
Test: yeast two-hybrid, no growth on medium lacking Trp, Leu, His and Ade

Binder	binding result
B1	no binding
B2	no binding
B3	no binding
B4	no binding

molecular target: Gal4 DNA binding domain fusion of full-length MazF (pGBD-MazF) (Escherichia coli, UniProt P04386 1-147); test: yeast two-hybrid, no growth on SD medium lacking Trp, Leu, His and Ade

Binder	binding result
VRKEPVFTLAELVNDITPENLHENIDWGEPKDKEVW (other) [Gal4 transcriptional activation domain fusion of MazEΔ(1-46) (pGAD-MazEΔ(1-46))]	no binding
B5	no binding
